# Test results as given in PubChem BioAssay AID540263 (National Center for Advancing Translational Sciences (NCATS), 2011).
# Sequences of proteins named here, by UniProt entry; tags and fusion partners are left off.
# UniProt Q14974, whole entry, looked up: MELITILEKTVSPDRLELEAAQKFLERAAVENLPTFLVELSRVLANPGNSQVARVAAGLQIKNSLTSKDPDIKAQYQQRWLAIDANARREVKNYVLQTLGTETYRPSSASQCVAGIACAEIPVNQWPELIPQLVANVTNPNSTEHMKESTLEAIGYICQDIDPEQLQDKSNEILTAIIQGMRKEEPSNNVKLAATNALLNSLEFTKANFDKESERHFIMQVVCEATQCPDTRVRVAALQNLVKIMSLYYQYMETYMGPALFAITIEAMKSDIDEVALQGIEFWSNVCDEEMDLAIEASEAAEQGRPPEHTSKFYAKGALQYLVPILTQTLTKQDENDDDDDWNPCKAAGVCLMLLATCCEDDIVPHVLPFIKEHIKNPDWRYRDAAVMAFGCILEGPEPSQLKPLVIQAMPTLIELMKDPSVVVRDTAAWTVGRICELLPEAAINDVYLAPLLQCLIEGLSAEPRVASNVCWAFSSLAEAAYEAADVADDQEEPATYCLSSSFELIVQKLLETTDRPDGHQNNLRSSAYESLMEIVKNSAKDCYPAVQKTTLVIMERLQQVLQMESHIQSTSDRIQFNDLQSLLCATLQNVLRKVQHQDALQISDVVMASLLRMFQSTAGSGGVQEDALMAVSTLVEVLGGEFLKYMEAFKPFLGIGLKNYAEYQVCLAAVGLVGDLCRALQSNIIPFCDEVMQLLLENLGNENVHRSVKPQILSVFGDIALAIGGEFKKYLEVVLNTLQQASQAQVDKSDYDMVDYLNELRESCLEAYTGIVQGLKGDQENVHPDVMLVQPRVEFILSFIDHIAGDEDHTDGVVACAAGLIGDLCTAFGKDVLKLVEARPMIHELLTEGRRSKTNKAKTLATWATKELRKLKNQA
# In all, about 340,000 compounds went through this assay and about 100 (0.029%) were called active. Roughly 8% stayed inconclusive and do not appear here. Shown is part of a subset that was picked to be rich in actives. A number with no mark means an inactive call. Calls come from the whole dose curve.
# Target: Importin subunit beta-1 (Homo sapiens) (UniProt Q14974)
# Experiment: qHTS Assay for Inhibitors of Rango (Ran-regulated importin-beta cargo) - Importin beta complex formation; note: nearly all actives have a fitted effect of over 15% in size;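 for inhibition of complex formation: 0% = DMSO wells and 100% = buffer wells lacking importin beta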
# Conditions: Rango CFP/YFP FRET sensor + importin beta, 45 min; series mostly up to 92.2 µM; inhibition of complex formation: at the top concentration
# From the text: NIH Molecular Libraries Probe Production Centers Network [MLPCN] NIH Chemical Genomics Center [NCGC] MLPCN Grant: R03 MH090808-01A1 Assay Submitter (PI): Petr Kalab NCGC Assay Overview: The small GTPase Ran regulates transport of macromolecules between the nucleus and the cytoplasm (nuclear transport) and has important functions in mitotic spindle assembly, nuclear envelope (NE) formation and nuclear pore complex (NPC) assembly. RanGTP gradient is thought to promote spindle assembly by providing a spatial clue to microtubule nucleation and Aurora A activation. Because the localized release and binding of importin alpha cargo relays this spatial clue to SAFs, inhibitors of the Rango - importin beta complex can then be used in further understanding their role in cell cycle specifically in mitosis progression. […] Activation of Aurora A has been linked to different types of cancer and a number of Aurora kinase inhibitors are being developed as potential canter therapeutics therefore, identified inhibitors of this complex could be developed into potential anti-mitotic probes for cancer treatment. Purified recombinant proteins Rango and importin beta were provided by the assay submitter. The assay used a fluorescence resonance energy transfer (FRET) Rango biosensor that contains the IBB of human snurportin 1 flanked by yellow fluorescent protein (EYFP) at the amino terminus and cerulean CFP10 at the carboxy terminus. […] Inhibitors will therefore be identified based on the ability to interfere with the FRET signal decrease. DMSO treated and no importin beta (buffer only) wells were used as negative and positive controls respectively. FRET readings were obtained at two time points. FRET reading prior to importin beta addition (pre-read) were used flag potential compound interference; FRET reading after importin beta addition (post-read) were used to identify inhibitors using the FRET ratio parameter.
# NCGC Assay Protocol Summary: Two and a half uL/well of Rango-buffer solution (50 nM Rango, 1x PBS, 1mM DTT, 0.02% Tween-20, 0.1% BSA final concentrations) was dispensed into 1536-well assay plates (Greiner, solid black medium-binding plates) with Aurora Discovery BioRAPTR Flying Reagent Dispenser (FRD; Beckton-Dickenson). Compound solution (23 nL) was transferred to the assay plate using Kalypsys pin tool equipped with a 1536-pin tool and incubated at room temperature for 5 min followed by a FRET pre-read using the PerkinElmer Envision plate reader. Two and a half uL/well of Importin beta - buffer solution (0.125 microM importin beta, 1x PBS, 1mM DTT, 0.02% Tween-20, 0.1% BSA final concentrations) were then added and incubated at room temperature giving a final reaction volume of 5uL. After 45min FRET post-read was obtained via the Envision plate reader using the same optics and settings as the pre-read (CFP/YFP optimized dual optical module D450/D505; excitation mirror CFP 430/24 nm; and emission filters CFP 486/10 nm and YFP 530/10 nm).
# Potency is the fitted concentration of half-maximal effect; tags give direction and shape of the fitted curve.
SMILES,inhibition of complex formation,Potency
C#CCOCCOCCOCCNc1nc(N2CCN(C(=O)Cn3cc(CCO)nn3)CC2)nc(N2CCN(C(=O)[C@H](CCCCN)n3cc(CCCC)nn3)CC2)n1,2.5%,–
O=S1(=O)CCOC[C@H](Cc2ccccc2)N1Cc1ccccc1Br,1.72%,–
Cc1nc2ccccc2c(C(=O)O)c1-c1ccccn1,-3.52%,–
CC(C)(C)Nc1nc(-c2ccccn2)nc2ccccc12,–,58 µM (active)
Cc1ccc(Oc2nc(-c3ccccn3)nc3ccccc23)cc1,1.95%,–
COc1cc2c(cc1CNC[C@H]1O[C@@H](n3cnc(C(N)=O)n3)[C@H](O)[C@@H]1O)OCO2,0.344%,–
NC1=NOC(=O)C1C1CCCCC1 (centres undefined),2.74%,–
NC(=S)NN=C1CCCC(C(F)(F)F)C1 (centres undefined),0.299%,–
O=C(OC12CC3CC(CC(C3)C1)C2)c1ccc(NCc2cc(O)ccc2O)cc1,0.607%,–
O=C(O)c1ccc([N+](=O)[O-])cc1Sc1ccsc1,-1.6%,–
CN(CCc1ccccc1)C(=O)c1cccc(NC(=O)Cc2cccc(NC(=O)C3CCCN(C(=O)C4CCC4)C3)c2)c1 (centres undefined),1.49%,–
CN(C(=O)c1cccc(NC(=O)Cc2ccc(NC(=O)C3CCCN(C(=O)C4CC4)C3)cc2)c1)C1CC1 (centres undefined),5.33%,–
C=CCN1C=C(C(=O)c2ccccc2)C(=O)CC1,1.13%,–
Cc1nc(Nc2ccccc2C)c2cnn(C)c2n1,0.799%,–
O=C(c1cccc(S(=O)(=O)N2CCCCCC2)c1)N1CCN(Cc2ccccc2)CC1,2.11%,–
C=CCOC(=O)N1CCC2CC1c1cc(-c3ccc(OC)cc3)ccc12 (centres undefined),-2.77%,–
O=C(NCCc1ccccc1)c1c[nH]c2ccc(F)cc2c1=O,-0.0045%,–
COc1ccc(CCC(=O)Nc2ccc(Cl)c(S(=O)(=O)N3CCOCC3)c2)cc1OC,-0.735%,–
O=C(CNC(=O)c1cc(S(=O)(=O)N2CCOCC2)ccc1N1CCCC1)Nc1ccc(F)c(F)c1,0.285%,–
Cc1ccc(NC(=O)C(C)OC(=O)C2CC3CCCC(C2)C3=O)cc1S(=O)(=O)N1CCOCC1 (centres undefined),-0.445%,–
Cn1cc(C2OC(=O)c3ccccc32)c2ccccc21 (centres undefined),-2.51%,–
O=C(Nc1ccc(S(=O)(=O)N2CCOCC2)cc1)C1CCN(S(=O)(=O)c2ccc(Cl)cc2)CC1,-0.232%,–
CC1C(C)N(C(=O)CCl)c2ccccc2N1C(=O)CCl (centres undefined),2.49%,–
NS(=O)(=O)c1ccc(CCNC(=O)c2ccc(Cl)c(S(=O)(=O)N3CCCCCC3)c2)cc1,-0.982%,–
O=C1c2ccccc2C(=O)N1CCCCCCN1C(=O)c2ccccc2C1=O,-4.66%,–
CC(C)C[C@H]1CN([C@@H](CC(C)C)CN2CCC[C@@H]2CN2C(=O)C(=O)NC[C@@H]2Cc2ccccc2)C(=O)C(=O)N1CCc1ccccc1,-4.53%,–
COc1ccc(-c2ccc3c(c2)C2CC3CCN2CCC#N)cc1 (centres undefined),-0.906%,–

SMILES,inhibition of complex formation,Potency
CN(C)C(CNC(=O)c1cc2ccccc2o1)c1ccccc1 (centres undefined),0.201%,–
CCCCNC1(C#N)CCN(Cc2ccccc2)CC1,-0.281%,–
NC(=O)C1(Nc2ccccc2Cl)CCCC1,1.43%,–
COc1ccc(S(=O)(=O)N2CCc3ccccc32)cc1C(=O)Nc1cc(S(C)(=O)=O)ccc1Cl,1.2%,–
Cc1cc(NC(=O)C(C)SCC(=O)Nc2cccc(S(=O)(=O)N3CCCCCC3)c2)no1 (centres undefined),-13.4%,–
NC(=O)c1ncn([C@@H]2O[C@H](CN=C3NS(=O)(=O)c4ccccc43)[C@@H](O)[C@H]2O)n1,0.0699%,–
Cc1cc([N+](=O)[O-])c(=O)[nH]c1C,-4.18%,–
O=C1OC(Cc2ccccc2)C(c2ccccc2)C1=O (centres undefined),1.66%,–
O=C(Nc1ccn(CCCNCc2ccc3[nH]ccc3c2)c(=O)n1)OCc1ccccc1,1%,–
CCCCNCCS(=O)(=O)NCc1ccccc1,-2.8%,–
CNc1nc(=O)n(C2CCCO2)cc1C (centres undefined),-3.1%,–
S=C(Nc1ccccc1)Nc1ccc2ccccc2c1,-0.599%,–
COc1ccc(S(=O)(=O)N2C[C@H]3CON(C)[C@H]3C[C@H]2c2cccc(Br)c2)cc1,1.49%,–
Cc1ccc(-c2csc(C(C#N)=C(O)CN3CCN(C(=O)c4ccco4)CC3)n2)cc1,-1.82%,–
Cc1ccc(S(=O)(=O)N2CCC(C(=O)N3CCCCCCC3)CC2)cc1,4.24%,–
CCCCC(=O)NC(c1ccc(OC)c(OC)c1)c1ccc2cccnc2c1O (centres undefined),1.17%,–
CCC1(C)COC(c2ccc(OC)c(OC)c2)OC1 (centres undefined),0.785%,–
CCC(C)C1(C2CCCC2)NC(=O)NC1=O (centres undefined),-3.68%,–
Cc1nn(-c2ccc(F)cc2)c(Cl)c1/C=C(/CCC(=O)O)c1nc2ccccc2s1,-3.7%,–
COc1cc(OC)c(C(=O)NNC(=O)c2ccc(NS(=O)(=O)c3cccs3)cc2)cc1OC,-0.772%,–
CC(=O)OCC1(O)CC23CCC4c5ccoc5CCC4(C)C2CCC1C3 (centres undefined),0.228%,–
CC1CCCN(C(=O)Cn2c(=O)oc3cc(S(=O)(=O)N4CCCCC4C)ccc32)C1 (centres undefined),-0.022%,–
CCCCN(C(=O)CSCc1ccc(C)cc1)c1c(N)n(Cc2ccccc2)c(=O)[nH]c1=O,-2.96%,–
OCC1(CO)CC2(C1)CC(CO)(CO)C2,2.26%,–
Cc1ccc(S(=O)(=O)CC(=O)Nc2sc(C)c(C)c2C(N)=O)cc1,-2.87%,–
Cc1ccc(S(=O)(=O)CC(=O)Nc2nnc(C)s2)cc1,–,65.1 µM (active)
Cc1ccc(S(=O)(=O)CCC(=O)Nc2nnc(CC(C)C)s2)cc1,-0.478%,–
